Data as given in patent publication US11707539B2, “FAP-targeted radiopharmaceuticals and imaging agents, and uses related thereto” (Trustees of Tufts College, priority 2020, dated 2023).

Sequences of proteins named here, by UniProt entry; tags and fusion partners are left off.
UniProt P27487, whole entry: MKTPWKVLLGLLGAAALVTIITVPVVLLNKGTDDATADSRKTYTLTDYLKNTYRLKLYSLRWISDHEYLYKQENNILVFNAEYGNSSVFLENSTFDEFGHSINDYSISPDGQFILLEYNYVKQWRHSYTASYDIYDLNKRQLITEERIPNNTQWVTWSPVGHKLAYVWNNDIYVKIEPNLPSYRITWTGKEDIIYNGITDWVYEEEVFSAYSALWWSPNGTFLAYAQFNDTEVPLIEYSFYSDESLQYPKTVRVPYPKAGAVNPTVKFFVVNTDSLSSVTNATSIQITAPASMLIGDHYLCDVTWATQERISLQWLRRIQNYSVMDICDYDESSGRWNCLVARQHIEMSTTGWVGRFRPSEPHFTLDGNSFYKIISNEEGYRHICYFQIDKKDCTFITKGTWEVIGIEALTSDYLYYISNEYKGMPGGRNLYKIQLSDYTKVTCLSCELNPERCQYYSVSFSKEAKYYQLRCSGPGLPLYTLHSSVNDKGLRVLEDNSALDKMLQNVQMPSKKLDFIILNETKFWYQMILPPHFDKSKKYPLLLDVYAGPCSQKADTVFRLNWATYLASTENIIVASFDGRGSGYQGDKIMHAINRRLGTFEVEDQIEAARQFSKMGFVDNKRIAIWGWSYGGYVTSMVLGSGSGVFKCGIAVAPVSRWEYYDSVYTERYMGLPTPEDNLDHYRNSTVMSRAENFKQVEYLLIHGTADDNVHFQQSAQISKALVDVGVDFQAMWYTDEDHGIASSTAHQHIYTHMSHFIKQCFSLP

Assays:
[1] = target: recombinant human dipeptidyl peptidase IV (DPPIV) (Homo sapiens (Human), UniProt P27487); assay: In vitro IC50 assay, dipeptidyl peptidase IV (Example 15); type: biochemical; details: read-out: DPPIV IC50; Gly-Pro-AMC, room temperature
[2] = Solubility in water after lyophilization
[3] = Stability in aqueous solution of pH about 3; details: during HPLC purification and subsequent lyophilization

In the case of `C[C@@H](NC(=O)[C@H]1CC[C@H](CNC(=O)CN2CCN(CC(=O)O)CCN(CC(=O)O)CCN(CC(=O)O)CC2)CC1)C(=O)N1CCC[C@H]1B(O)O`, the IC50 [1] is reported as greater than 100 µM, the solubility in water [2] is reported as greater than 50 mg/mL and the “degradation in aqueous solution” value [3] is reported as “did not observe any sign of degradation”.
